Literature values as cited in US8741882B2, “Anti-diabetic compounds” (Sen Capital, LLC., priority 2012, dated 2014).

Details: in vivo; cited from earlier work

Q: Which metabolism and excretion does the source give for `CN(C)C(=N)N=C(N)N` [Metformin, N,N-dimethylimidodicarbonimidic diamide] here?
A: excreted unchanged in the urine and does not undergo hepatic metabolism nor billary excretion
